Values of other authors as cited in patent publication US7172752B2, “Combination particles for the treatment of asthma” (Orion Corporation, priority 2000, dated 2007).

Which results are given for Formoterol fumarate?
solubility in ethanol (ethanol): sparingly soluble; solubility in glacial acetic acid (glacial acetic acid): freely soluble; solubility in methanol (methanol): soluble
